Measurements from ChEMBL document CHEMBL4680096, “Structural Optimization of 4-Chlorobenzoylpiperidine Derivatives for the Development of Potent, Reversible, and Selective Monoacylglycerol Lipase (MAGL) Inhibitors” (J Med Chem, 2016).

Species: Homo sapiens
Test: Selectivity index, ratio of IC50 for FAAH (unknown origin) to IC50 for human MAGL

O=C(CCCCCc1ccc(-c2ccccc2)cc1)OCc1ccc2c(c1)OCO2
Ratio IC50: 3
